Molecular target: DR5 on the surface of target cancer cells (MM1.S, RPMI8226, K562) (human) (UniProt O14763)
Test: cell-based or functional assay

Row | Substance | % killing of MM1.S cells pretreated with 2.5 nM Bortezomib (DR5 upregulated), co-culture 1:1 for 12 hours, flow cytometry [% killing] | % killing of MM1.S cells, vehicle-treated, co-culture 1:1 for 12 hours, flow cytometry [% killing]
1 | TRAIL variant (TRAIL D269H/E195R) expressed on KHYG-1 cells (from UniProt P50591 1-281) (ligand) | 70.5 | 47.9
2 | wildtype TRAIL expressed on KHYG-1 cells (from UniProt P50591 1-281) (ligand) | 51.4 | 41.8

From patent US20210046118A1
